Experimental data reported in patent US20230118625A1 (TICAROS, published 2023).

Biological target: actin (mouse, UniProt P60710 2-375)
Assay: confocal co-localization in CD99-KO T cells expressing the mutant, on anti-CD3-coated coverslips

B1: CD99 Cyt mutant (mouse CD99 with cytoplasmic domain replaced by that of CD4), fluorescent protein fusion (receptor, not shown: large carriers)
chain: QKLISEEDLNSDDFNLGDALEDPNMKPTPKAPTPKKPSGGFDLEDALPGGGGGGAGEKPGNRPQPDPKPPRPHGDSGGISDSDLADAAGQGGGGAGRRGSGDEGGHGGAGGAEPEGTPQGLVPGVVAAVVAAVAGAVSSFVVRCRHRRR
notes: Expressed in CD99-KO mouse CD8 T cells; also called CD99Cyto-YFP
binding result: no binding
